The target of the assay is Peptidyl-prolyl cis-trans isomerase A (Homo sapiens, UniProt P62937). In words: Immunosuppressive activity was measured by inhibition of the IL-2 production in Jurkat cells. It counts as functional, cell-based.

Chains of the proteins cited; added tags and fusions are not shown.
UniProt P62937, whole entry: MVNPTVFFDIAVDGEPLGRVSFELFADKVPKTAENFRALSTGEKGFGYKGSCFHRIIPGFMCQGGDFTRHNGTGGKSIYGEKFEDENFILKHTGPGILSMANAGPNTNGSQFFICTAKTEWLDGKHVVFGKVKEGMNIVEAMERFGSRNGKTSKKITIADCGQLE

Here are results for one compound from ChEMBL document CHEMBL1136490, “Synthesis of non-immunosuppressive cyclophilin-Binding cyclosporin A derivatives as potential anti-HIV-1 drugs” (Bioorg Med Chem Lett, 2003).

Broadly, the IC50 is the point on the concentration scale where inhibition reaches its midpoint. Lower therefore signals greater potency. For the compound `C/C=C/C[C@@H](C)[C@@H](O)[C@H]1C(=O)N[C@@H](CC)C(=O)N(C)[C@H](SCCN(C)C)C(=O)N(C)[C@@H](CC(C)(C)O)C(=O)N[C@@H](C(C)C)C(=O)N(C)[C@@H](CC(C)C)C(=O)N[C@@H](C)C(=O)N[C@H](C)C(=O)N(C)[C@@H](CC(C)C)C(=O)N(C)[C@@H](CC(C)C)C(=O)N(C)[C@@H](C(C)C)C(=O)N1C` [SCY 635], inhibition was half-maximal at 1550 nM (IC50).
